MC4R antagonist: blocks human MC4R cAMP signaling. P32245. MC4R-expressing cells, MTII-stimulated cAMP, LANCE TR-FRET. inhibition, % at 6.5 µM. 360,000 compounds, 0.48% hits. AID 540295;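 active = inhibition above its plate's cutoff, the mean of tested wells on that plate plus 3 SD, cut at about 29% in these data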;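 also: 0% = Melanotan II alone and 100% = Melanotan II plus saturating MCL0020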
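Material – human MC4R-expressing U2OS cells · Repeats – no replicates · Detection – TR-FRET with Eu-cAMP and labeled anti-cAMP, 671 nm · Times – compound 30 min, challenge 1 h, detection 1 h · Compound – single nominal compound dose of 6.5 µM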
ALR inh: blocks human ALR sulfhydryl oxidase activity | inhibition, % (test concentration not listed) | 3.8% of 290,000 active | AID 485317 | purified ALR, DTT oxidation, H2O2 HRP-luminol luminescence | P55789;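 active means mean and each replicate at 75% or more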;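 further: stock transfer was 7.5 nL into about 7.5 µL; 0% = neutral wells and 100% = wells with inactivated enzyme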
NALP1 inh: NALP1 inhibition | S. cerevisiae NALP1/ASC/caspase-1 growth, X-gal OD620, 72 h | inhibition, % at 10 µM | 280,000 compounds, 0.61% hits | AID 2071; in the data active = inhibition mostly above about 24%, no sharp cut-off; inactive = mostly below about 32%
MC4R ag barr: agonists of human melanocortin 4 receptor (MC4R) beta-arrestin; U2OS MC4R beta-arrestin complementation, luminescence; percent of melanotan II response, DMSO zero; activation, % at 8.9 µM; 360,000 compounds, 0.98% hits;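 active = activation above a per-plate cutoff, the mean activation of sample wells on that plate plus 3 SD, cut at about 8% in these data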
HDAC3 inh: human HDAC3 inhibition; 320,000 compounds, 0.15% hits; recombinant HDAC3, fluorogenic peptide/trypsin coupled, fluorescence; inhibition, % at 8.3 µM; in the data active = inhibition above about 26%, passing the limit was not always enough
UUG fidelity: modulators of start codon recognition fidelity in yeast; AID 602363; activity score, % at 18.7 µM; S. cerevisiae UUG-firefly luciferase reporter, luminescence/redox ratio; actives 0.13% (n = 350,000);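 active = replicate mean at a twofold rise or more, about +100% in these data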;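 note: firefly luciferase made from a UUG start codon reports start codon fidelity; reporter light over untreated wells divided by growth signal over untreated wells; some hits fall short of that in this replicate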
Numbers without * were called inactive; ! = not active in a repeat. Most compounds without a hit are left out; they make up all but 4.2% or so of the library.

The opening 2 compounds, ahead of the listing:
What do the screens show for `CCC(=O)N[C@H]1CC[C@@H](CCNC(=O)Nc2ccc(C(F)(F)F)cc2)O[C@@H]1CO`?
UUG fidelity: -0.3

Results for CCC(=O)N1[C@@H](CO)[C@@H](c2ccc(-c3ccccc3)cc2)[C@@H]1CNC(=O)COC ?
UUG fidelity: 0.9

The listing, from the first entry:
What do the screens show for `CCC(=O)N[C@H]1CC[C@@H](CCNC(=O)Nc2ccc(C(F)(F)F)cc2)O[C@@H]1CO`?
UUG fidelity: -0.3

Results for CCC(=O)N1[C@@H](CO)[C@@H](c2ccc(-c3ccccc3)cc2)[C@@H]1CNC(=O)COC ?
UUG fidelity: 0.9

Results for COCC(=O)Nc1ccc2c(c1)C(=O)N(C)C[C@@H](OC)[C@H](C)CN(C(=O)CC1CC1)[C@@H](C)CO2 ?
UUG fidelity: 18.7

How did O=C1CSC(c2ccccc2)N1c1cccnc1 (stereo not given) do in these assays?
MC4R antagonist: 3.4; ALR inh: 93.1*; NALP1 inh: 15.2; MC4R ag barr: 1.7; HDAC3 inh: -0.4; UUG fidelity: -13.9

What do the screens show for `CC(=O)Nc1ccc(N2C(=O)CSC2c2ccccc2)cc1` (stereo not given)?
MC4R antagonist: 10.3; ALR inh: 98.7*; NALP1 inh: -2.7; MC4R ag barr: -1.0; HDAC3 inh: 7.6; UUG fidelity: 1.2

What do the screens show for `O=C1CSC(c2cccnc2)N1c1ccccc1` (stereo not given)?
MC4R antagonist: 14.0; ALR inh: 96.2*; NALP1 inh: 29.4; MC4R ag barr: 2.3; HDAC3 inh: 0.4; UUG fidelity: -20.3

How did CC(C)(C)c1ccc(N2C(=O)CSC2c2cccnc2)cc1 (stereo not given) do in these assays?
MC4R antagonist: 25.8; NALP1 inh: 14.3; MC4R ag barr: 1.1; HDAC3 inh: -2.5; UUG fidelity: -6.4

How did O=C1CSC(c2ccccc2)N1c1ccccc1 (stereo not given) do in these assays?
UUG fidelity: -8.2

What do the screens show for `Cc1cccc(N2C(=O)CSC2c2cccnc2)c1` (stereo not given)?
MC4R antagonist: 1.6; ALR inh: 99.0*; NALP1 inh: -9.7; MC4R ag barr: -0.7; HDAC3 inh: 4.6; UUG fidelity: -18.3

How did C[C@@H]1CN([C@H](C)CO)C(=O)c2cc(C#CC3CCCCC3)cnc2O[C@H]1CN(C)C(=O)C1CCCCC1 do in these assays?
UUG fidelity: 11.8

Continued, starting with the last 2 of the part before.
What do the screens show for `Cc1cccc(N2C(=O)CSC2c2cccnc2)c1` (stereo not given)?
MC4R antagonist: 1.6; ALR inh: 99.0*; NALP1 inh: -9.7; MC4R ag barr: -0.7; HDAC3 inh: 4.6; UUG fidelity: -18.3

How did C[C@@H]1CN([C@H](C)CO)C(=O)c2cc(C#CC3CCCCC3)cnc2O[C@H]1CN(C)C(=O)C1CCCCC1 do in these assays?
UUG fidelity: 11.8

What do the screens show for `COC(=O)C[C@H]1CC[C@@H]2[C@@H](COc3ccc(NC(=O)Nc4ccc(C)cc4)cc3C(=O)N2C)O1`?
UUG fidelity: -3.1

What do the screens show for `Cc1cccc(N2CCN(c3cccc(C)c3)C2c2cccnc2)c1`?
MC4R antagonist: -1.7; ALR inh: 95.2*; NALP1 inh: 16.3; MC4R ag barr: 1.1; HDAC3 inh: 7.1; UUG fidelity: -20.4

How did Cc1ccc(N2CCN(c3ccc(C)cc3)C2c2ccncc2)cc1 do in these assays?
MC4R antagonist: 3.3; ALR inh: 39.8; NALP1 inh: -22.2; MC4R ag barr: 0.6; HDAC3 inh: 6.5; UUG fidelity: -13.6

How did CC(C)NC(=O)Nc1ccc2c(c1)C(=O)N([C@@H](C)CO)C[C@H](C)[C@@H](CN(C)C(=O)c1ccccc1)OCCCC[C@H](C)O2 do in these assays?
UUG fidelity: -14.1

Results for CCOC(=O)NC(c1cccc(Cl)c1)C1CCCCCC1=O (stereo not given) ?
MC4R antagonist: -4.3; ALR inh: -1.7; NALP1 inh: 43.3*; MC4R ag barr: 0.2; HDAC3 inh: -1.3; UUG fidelity: 8.4

How did COc1ccc(C#Cc2cnc3c(c2)C(=O)N([C@H](C)CO)C[C@H](C)[C@H](CN(C)C(=O)c2ccccc2F)O3)cc1 do in these assays?
UUG fidelity: 18.3

Results for CC/C(=N\Nc1ccnc2cc(Cl)ccc12)c1ccc(O)cc1 ?
MC4R antagonist: 6.5; ALR inh: 95.9*; NALP1 inh: 7.7; MC4R ag barr: 0.5; HDAC3 inh: 8.3; UUG fidelity: -10.0

How did C[C@H](CO)N1C[C@H](C)[C@@H](CN(C)S(C)(=O)=O)Oc2ncc(C#CCN(C)C)cc2C1=O do in these assays?
UUG fidelity: 27.0

Results for C[C@@H]1CCCCO[C@H](CN(C)S(=O)(=O)c2ccc(F)cc2)[C@@H](C)CN([C@@H](C)CO)C(=O)c2cc(NC(=O)CCCN(C)C)ccc2O1 ?
UUG fidelity: 17.2

What do the screens show for `CCc1ccc(NC(=O)C2CCC(CNC(=O)[C@@H]3Cc4ccccc4CN3)CC2)cc1` (stereo not given in full)?
MC4R antagonist: -2.3; ALR inh: -1.9; NALP1 inh: 33.5*; MC4R ag barr: -2.4; HDAC3 inh: 1.1; UUG fidelity: -13.2

Results for CC(C)c1ccc(NC(=O)C2CCN(C(=O)[C@@H]3Cc4ccccc4CN3)CC2)cc1 ?
MC4R antagonist: -3.0; ALR inh: -6.1; NALP1 inh: 31.5*; MC4R ag barr: 1.5; HDAC3 inh: 3.2; UUG fidelity: 2.5

Results for c1cnc2c(c1)ccc1cccnc12 ?
MC4R antagonist: 6.2; NALP1 inh: 53.7*!; MC4R ag barr: -2.6; HDAC3 inh: 2.7; UUG fidelity: -32.5

What do the screens show for `O=Cc1ccc2ccc3cccnc3c2n1`?
MC4R antagonist: 5.3; ALR inh: 0.1; NALP1 inh: 10.9; MC4R ag barr: -1.8; HDAC3 inh: -3.0; UUG fidelity: -45.6

What do the screens show for `O=C(CN1CCOCC1)N[C@H]1CC[C@H](CCNS(=O)(=O)c2ccccc2F)O[C@@H]1CO`?
UUG fidelity: 1.7

How did Nc1cc2c([N+](=O)[O-])cccc2o1 do in these assays?
MC4R antagonist: 4.5; ALR inh: 85.1*; NALP1 inh: -5.8; MC4R ag barr: -0.4; HDAC3 inh: 8.4; UUG fidelity: -6.9

Results for O=C(NC(=S)N(Cc1ccccc1)c1ccccn1)C1CCCCC1 ?
MC4R antagonist: 8.0; ALR inh: 98.9*; NALP1 inh: -4.3; MC4R ag barr: -2.6; HDAC3 inh: 0.7

Results for CN(Cc1ccccc1)C(=S)NC(=O)C1CCCCC1 ?
MC4R antagonist: 25.7; ALR inh: -17.8; NALP1 inh: 25.1; MC4R ag barr: 0.6; HDAC3 inh: -5.3; UUG fidelity: -5.6

How did Nn1cc(-c2ccccc2)nc1SCC(=O)Nc1cccc(S(N)(=O)=O)c1 do in these assays?
MC4R antagonist: -8.6; ALR inh: 98.7*; MC4R ag barr: -1.9; HDAC3 inh: 2.0; UUG fidelity: -20.7

How did NS(=O)(=O)c1cccc(NC(=O)CSc2nc3ccc(Cl)cc3[nH]2)c1 do in these assays?
MC4R antagonist: 7.6; ALR inh: 97.1*; NALP1 inh: 9.6; MC4R ag barr: -1.5; HDAC3 inh: -4.4; UUG fidelity: -11.6

How did C[C@H](NC(=O)C[C@H]1CC[C@H](NC(=O)CN2CCOCC2)[C@H](CO)O1)c1ccccc1 do in these assays?
UUG fidelity: -15.1

How did Cc1ccc(N2CCN(S(=O)(=O)N3CCCCC3)CC2)cc1Cl do in these assays?
MC4R antagonist: 2.6; ALR inh: -1.9; NALP1 inh: 26.5; MC4R ag barr: -1.5; HDAC3 inh: 6.0; UUG fidelity: -11.3
